Measured values published in US20190038613A1, “COMBINATION THERAPY” (Eli Lilly and Company, priority 2016, published 2019).

Tested on: deposited Aβ
Test: Ex vivo target engagement, immunohistochemistry on brain sections from fixed PDAPP brain
Assay type: binding
Settings: cryostat coronal sections from aged PDAPP mice (25-month old), test antibody 20 μg/mL
Excerpt: Secondary HRP reagents specific for human IgG are employed and the deposited plaques are visualized with DAB-Plus (DAKO). Biotinylated murine 3D6 antibody followed by Step-HRP secondary is used as a positive control. […] Aβ antibodies (Antibody I and Antibody II) engaged deposited Aβ target ex vivo.

B1: Antibody I: anti-N3pGlu Abeta antibody with LC of SEQ ID NO: 12 and HC of SEQ ID NO: 11 (antibody)
heavy: QVQLVQSGAEVKKPGSSVKVSCKASGYTFTDYYINWVRQAPGQGLEWMGWINPGSGNTKYNEKFKGRVTITADESTSTAYMELSSLRSEDTAVYYCTREGETVYWGQGTLVTVSSASTKGPSVFPLAPSSKSTSGGTAALGCLVKDYFPEPVTVSWNSGALTSGVHTFPAVLQSSGLYSLSSVVTVPSSSLGTQTYICNVNHKPSNTKVDKKV[human IgG1 Fc not listed]
light: DVVMTQSPLSLPVTLGQPASISCKSSQSLLYSRGKTYLNWFQQRPGQSPRRLIYDVSKLDSGVPDRFSGSGSGTDFTLKISRVEAEDVGVYYCVQGTHYPFTFGQGTKLEIKRTVAAPSVFIFPPSDEQLKSGTASVVCLLNNFYPREAKVQWKVDNALQSGNSQESVTEQDSKDSTYSLSSTLTLSKADYEKHKVYACEVTHQGLSSPVTKSFNRGEC
labeling of deposited Aβ in PDAPP hippocampus: labeled a subset of deposits

B2: Antibody II: anti-N3pGlu Abeta antibody with LC of SEQ ID NO: 13 and HC of SEQ ID NO: 11 (antibody)
heavy: B1 heavy
light: DIQMTQSPSTLSASVGDRVTITCKSSQSLLYSRGKTYLNWLQQKPGKAPKLLIYAVSKLDSGVPSRFSGSGSGTEFTLTISSLQPDDFATYYCVQGTHYPFTFGQGTKLEIKRTVAAPSVFIFPPSDEQLKSGTASVVCLLNNFYPREAKVQWKVDNALQSGNSQESVTEQDSKDSTYSLSSTLTLSKADYEKHKVYACEVTHQGLSSPVTKSFNRGEC
labeling of deposited Aβ in PDAPP hippocampus: labeled a subset of deposits
